Laboratory results from US20040106172A1, “Hydrolyzing/dehydration condensing enzymes, method for producing the enzyme and method for synthesizing amide by using the enzyme” (Okayama University, priority 2002, published 2004).

Test system: Capsaicin hydrolyzing/dehydration condensing enzyme of the invention
Experimental: The reaction temperature is 37° C.
As a comparative example, aminoacylase is used. The resulting capsaicin analog is quantitatively measured by HPLC analysis of the hexane phase.

Compound: CCCCCCCCCCCC(=O)O [Lauric acid]
- reactivity in synthesis between vanillylamine and saturated fatty acids: highest
